Assay results taken from US20030207290.

Protein sequences, listed by entry. Tags and fused reporters are not part of them.
UniProt O75563, whole entry: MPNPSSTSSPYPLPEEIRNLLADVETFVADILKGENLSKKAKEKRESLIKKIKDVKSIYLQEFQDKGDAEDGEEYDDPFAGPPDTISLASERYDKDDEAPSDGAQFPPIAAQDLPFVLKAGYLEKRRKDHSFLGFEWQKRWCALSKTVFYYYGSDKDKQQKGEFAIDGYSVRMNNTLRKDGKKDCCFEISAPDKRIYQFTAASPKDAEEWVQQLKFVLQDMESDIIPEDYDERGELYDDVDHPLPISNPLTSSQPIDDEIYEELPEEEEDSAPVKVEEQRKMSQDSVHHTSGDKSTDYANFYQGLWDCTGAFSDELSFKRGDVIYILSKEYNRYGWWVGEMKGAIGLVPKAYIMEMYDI

Biological target: SKAP-HOM (EST clone IMAGE 3893964), in vitro translated, biotin-labelled (UniProt O75563)

Question: Which ECL signal with Sulfo-TAG anti-phosphotyrosine after SAP treatment and SRC reaction (+SRC, +SAP) does the source give for SRC (known kinase, 0.1 mU SRC/µl) here?
Answer: 32000 ECL signal
